# According to ChEMBL document CHEMBL1667811, “Influence of pKa on the biotransformation of indene H1-antihistamines by CYP2D6” (Bioorg Med Chem Lett, 2011):
# Protein sequences, listed by entry. Tags and fused reporters are not part of them.
# UniProt P35367, whole entry: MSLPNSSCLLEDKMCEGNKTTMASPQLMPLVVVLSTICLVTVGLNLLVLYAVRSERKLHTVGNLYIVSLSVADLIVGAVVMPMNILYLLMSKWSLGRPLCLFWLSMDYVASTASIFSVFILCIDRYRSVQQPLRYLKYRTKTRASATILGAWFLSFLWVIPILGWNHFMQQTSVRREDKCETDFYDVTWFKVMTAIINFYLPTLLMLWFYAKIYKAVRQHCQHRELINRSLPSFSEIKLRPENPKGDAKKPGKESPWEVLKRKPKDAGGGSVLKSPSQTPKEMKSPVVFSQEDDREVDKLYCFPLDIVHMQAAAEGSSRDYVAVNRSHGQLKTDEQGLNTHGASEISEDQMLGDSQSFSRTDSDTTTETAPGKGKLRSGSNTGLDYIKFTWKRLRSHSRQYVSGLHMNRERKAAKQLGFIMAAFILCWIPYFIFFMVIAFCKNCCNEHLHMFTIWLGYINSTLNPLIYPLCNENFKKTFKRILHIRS
# Key:
# Rattus norvegicus = test: Intrinsic clearance in rat 1 mg/kg, iv in presence of 3 uM quinidine; type: ADME, organism-based; set-up: dose 1 mg/kg, route intravenous; details: in vivo
# [1] = system: Homo sapiens (human liver microsomes); test: Intrinsic clearance in human liver microsomes
# Histamine H1 receptor = Histamine H1 receptor (Homo sapiens, UniProt P35367); test: Binding affinity to histamine H1 receptor
SMILES,clearance (Rattus norvegicus) [mL/min/kg],CL [1] [mL/min/kg],Ki (Histamine H1 receptor) [nM]
C[C@H](C1=C(CCN(C)Cc2ncc[nH]2)Cc2ccccc21)c1cnccn1,403,411.7,
CN(CCF)CCC1=C(Cc2cnccn2)c2ccccc2C1,,,24
